How the values were obtained:
[1] = system: basal keratinocytes of mouse epidermis; settings: dissolved in organic solvent like acetonitrile or acetone; data not shown
[2] = system: SKH-1 hairless mice
[3] = system: K14 null mice
[4] = sustained topical treatment, four weeks
[5] = topical 1 μmole SF in jojoba oil twice a week for four weeks
[6] = topical 1 μmole SF in jojoba oil, four weeks, relative to vehicle

C[S+]([O-])CCCCN=C=S (stereo not drawn) [SF, 4-methylsulfinylbutyl isothiocyanate]
effect reaching basal layer of epidermis [1]: does not reach the basal layer of epidermis
effect on rate of apoptosis in skin [2, 4]: did not appear to affect skin morphology or alter the rate of apoptosis
effect on skin morphology [2, 4]: did not appear to affect
K14 immunoreactivity in skin [2, 5]: no change
K16 immunoreactivity in skin [2, 5]: increased
K17 immunoreactivity in skin ([2]; topical 1 μmole SF in jojoba oil twice a week for four weeks, vs vehicle-treated skin, extended to basal layer): markedly increased
K14 level in total protein extracts of dorsal skin [2, 6]: unaltered
K16 level in total protein extracts of dorsal skin [2, 6]: increased levels
K17 level in total protein extracts of dorsal skin [2, 6]: increased levels
K17 in basal layer of epidermis ([3]; back skin of P2 mice, immunohistochemistry): presence of K17 antigens in the basal layer
outcome beyond P4 ([3]; revised regimen, progressive wasting beyond P4): most of them died within a day or two
maintenance of K16/K17 expression in the oral mucosa ([3]; topical delivery during postnatal phase): not effective
